B1: Zinc finger protein 366 (Homo sapiens), Q8N895 (parent)
chain: MQKEMKMIKDEDVHFDLAVKKTPSFPHCLQPVASRGKAPQRHPFPEALRGPFSQFRYEPPPGDLDGFPGVFEGAGSRKRKSMPTKMPYNHPAEEVTLALHSEENKNHGLPNLPLLFPQPPRPKYDSQMIDLCNVGFQFYRSLEHFGGKPVKQEPIKPSAVWPQPTPTPFLPTPYPYYPKVHPGLMFPFFVPSSSPFPFSRHTFLPKQPPEPLLPRKAEPQESEETKQKVERVDVNVQIDDSYYVDVGGSQKRWQCPTCEKSYTSKYNLVTHILGHSGIKPHACTHCGKLFKQLSHLHTHMLTHQGTRPHKCQVCHKAFTQTSHLKRHMMQHSEVKPHNCRVCGRGFAYPSELKAHEAKHASGRENICVECGLDFPTLAQLKRHLTTHRGPIQYNCSECDKTFQYPSQLQNHMMKHKDIRPYICSECGMEFVQPHHLKQHSLTHKGVKEHKCGICGREFTLLANMKRHVLIHTNIRAYQCHLCYKSFVQKQTLKAHMIVHSDVKPFKCKLCGKEFNRMHNLMGHMHLHSDSKPFKCLYCPSKFTLKGNLTRHMKVKHGVMERGLHSQGLGRGRIALAQTAGVLRSLEQEEPFDLSQKRRAKVPVFQSDGESAQGSHCHEEEEEDNCYEVEPYSPGLAPQSQQLCTPEDLSTKSEHAPEVLEEACKEEKEDASKGEWEKRSKGDLGAEGGQERDCAGRDECLSLRAFQSTRRGPSFSDYLYFKHRDESLKELLERKMEKQAVLLGI
partner: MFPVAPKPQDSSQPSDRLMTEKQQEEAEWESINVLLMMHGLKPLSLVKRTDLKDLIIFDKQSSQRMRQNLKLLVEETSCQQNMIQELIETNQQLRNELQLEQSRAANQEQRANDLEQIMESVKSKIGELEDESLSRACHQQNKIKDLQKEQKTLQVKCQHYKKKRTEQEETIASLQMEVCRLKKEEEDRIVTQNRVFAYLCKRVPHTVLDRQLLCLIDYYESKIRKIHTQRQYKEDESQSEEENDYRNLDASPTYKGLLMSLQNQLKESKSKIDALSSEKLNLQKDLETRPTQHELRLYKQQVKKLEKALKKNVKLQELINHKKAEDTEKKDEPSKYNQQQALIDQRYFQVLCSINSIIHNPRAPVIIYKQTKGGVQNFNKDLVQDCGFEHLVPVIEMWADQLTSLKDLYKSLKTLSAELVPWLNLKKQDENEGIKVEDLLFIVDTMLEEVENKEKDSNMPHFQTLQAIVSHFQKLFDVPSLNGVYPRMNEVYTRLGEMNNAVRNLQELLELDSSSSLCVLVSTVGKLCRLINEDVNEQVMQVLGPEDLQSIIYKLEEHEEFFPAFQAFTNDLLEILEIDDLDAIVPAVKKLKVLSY
B2: Zinc finger protein 366 (Homo sapiens), Q8N895 (parent)
chain: B1 chain

Variants of: B1
Settings: with cep70_human CEP70, Q8NHQ1

effect of a mutation on the interaction | Variant
disrupting interaction strength | S485G

Variants of: B2
Settings: with psa3_human PSMA3, P25788

effect of a mutation on the interaction | Variant
with no effect | S485G

Reference: IntAct's records for PubMed 29892012
